# Literature values as cited in paper PMC12298822, “Development and Validation of a Highly Sensitive LC–MS/MS Method for the Precise Quantification of Sitagliptin in Human Plasma and Its Application to Pharmacokinetic Study” (Molecules, 2025).
# Test system: DPP-4
# Parameters: method as in PMID 37287751
# Settings: cited from earlier work
compound,measurement,value
"N[C@@H](CC(=O)N1CCn2c(nnc2C(F)(F)F)C1)Cc1cc(F)c(F)cc1F [Sitagliptin, 7-[(3R)-3-amino-1-oxo-4-(2,4,5-trifluorophenyl)butyl]-5,6,7,8-tetrahydro-3-(trifluoromethyl)]",preference for DPP-4 over DPP-8 and DPP-9,high preference
